Reported properties for industrial, environmental and drug-like chemicals

Values as listed in the OPERA 2.9 repository of K. Mansouri.

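OPERA's authors assembled the values from existing databases and did not measure them anew. One number stands for a compound and property, with no spread given. Method and conditions are not stated for these values. A value may pool stereoisomers or salt forms, and the file does not say which form was measured. Some entries may be limits or estimates that an upstream database listed as plain numbers.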

Melting points are in °C. Boiling points are in °C, nominally at 760 mmHg. The octanol-water partition coefficient is given as log10; larger values mean a more lipophilic compound. Solubility in water is on a log10 molar scale (set defined at 25 °C). Vapor pressures (log10 mmHg) refer to near room temperature, 15 to 30 °C; higher is more volatile. The Henry's law constant is on a log10 scale in atm·m3/mol (set defined at 25 °C); higher favours air over water. The unbound fraction in human plasma runs from 0 (all bound) to 1 (all free). Intrinsic clearance (human, µL/min per 10^6 hepatocytes): higher is faster turnover, and 0 stands for none detected.

* CCOc1nc(F)cc2nc(S(=O)(=O)Nc3c(Cl)cccc3Cl)nn12 [Diclosulam]: log solubility -4.81 (log10 mol/L); fraction unbound 0.006747
* CC(C)OC(=O)OOC(C)(C)C [tert-Butylperoxy isopropyl carbonate]: logP (octanol/water) 2.5; log solubility -1.904 (log10 mol/L); vapor pressure -0.329 (log10 mmHg)
* c1ccc(-c2ccccc2)cc1 [Biphenyl]: fraction unbound 0.01557; Clint 14.18 µL/min/10^6 cells
* CCCCC(CC)COP(=S)([S-])OCC(CC)CCCC.CCCCC(CC)COP(=S)([S-])OCC(CC)CCCC.[Zn+2] (stereo not drawn): mp -27 °C; vapor pressure -5.502 (log10 mmHg)
* Cc1ccccc1N [2-methylaniline]: fraction unbound 0.713; Clint 0 µL/min/10^6 cells
* N#C/N=C1SCCN1Cc1ccc(Cl)[n]c1: fraction unbound 0.2866; Clint 2.57 µL/min/10^6 cells
* COc1ccc(O)c(C(C)(C)C)c1 [2-tert-Butyl-4-methoxyphenol]: mp 58 °C; log solubility -2.603 (log10 mol/L); vapor pressure -2.606 (log10 mmHg)
* CO/N=C(/C(=O)OC)c1ccccc1CO/N=C(\C)c1cccc(C(F)(F)F)c1 [Trifloxystrobin]: BP 312 °C; vapor pressure -7.593 (log10 mmHg); Henry's law constant -7.644 (log10 atm·m3/mol)
* O=C(NC(=O)c1c(F)cccc1F)Nc1ccc(OC(F)(F)C(F)OC(F)(F)F)c(Cl)c1 (stereo not drawn) [Novaluron]: vapor pressure -6.921 (log10 mmHg); Henry's law constant -4.705 (log10 atm·m3/mol); Clint 2.87 µL/min/10^6 cells
* Cc1cc(C(C)(C)c2ccc(O)c(C)c2)ccc1O [3,3'-Dimethylbisphenol A]: logP (octanol/water) 4.11; log solubility -4.085 (log10 mol/L)
* NC(=O)OC[C@H](O)[C@@H](O)[C@H](N)C(=O)N[C@H](C(=O)O)[C@H]1O[C@@H](n2cc(C(=O)O)c(=O)[nH]c2=O)[C@H](O)[C@@H]1O [Polyoxin D]: log solubility -1.17 (log10 mol/L); vapor pressure -0.001 (log10 mmHg)
* CCS(=O)c1c(C#N)nn(-c2c(Cl)cc(C(F)(F)F)cc2Cl)c1N (stereo not drawn) [Ethiprole]: logP (octanol/water) 2.9; log solubility -4.635 (log10 mol/L); vapor pressure -9.166 (log10 mmHg)
* CCOC(=O)C1OC1(C)c1ccccc1 (stereo not drawn) [Ethyl methylphenylglycidate]: logP (octanol/water) 2.6; vapor pressure -2.763 (log10 mmHg)
* O=P(O)(O)c1ccccc1 [Phenylphosphonic acid]: log solubility 0.08 (log10 mol/L); vapor pressure -8.253 (log10 mmHg)
* Clc1cccc(-c2ccc(Cl)c(Cl)c2Cl)c1Cl [2,2',3,3',4-Pentachlorobiphenyl]: mp 119 °C; log solubility -7.05 (log10 mol/L); vapor pressure -4.824 (log10 mmHg)
* C=C(C)C(=O)OCCCCOC(=O)C(=C)C [Butane-1,4-diyl bis(2-methylprop-2-enoate)]: logP (octanol/water) 3.1; log solubility -2.969 (log10 mol/L)
* CC1=C(C(=O)O)N2C(=O)[C@@H](N)[C@H]2SC1 [7-Aminodeacetoxycephalosporanic acid]: log solubility -3.045 (log10 mol/L); vapor pressure -8.201 (log10 mmHg)
* CC(=O)Cc1c(Cl)cc(Cl)cc1Cl [1-(2,4,6-Trichlorophenyl)-2-propanone]: mp 68.3 °C; BP 296 °C; logP (octanol/water) 3.2; log solubility -3.59 (log10 mol/L); vapor pressure -3.264 (log10 mmHg)
* Cc1cc(C)cc(OP(=O)(Oc2cc(C)cc(C)c2)Oc2cc(C)cc(C)c2)c1 [Tris(3,5-xylenyl)phosphate]: mp 46 °C; log solubility -5.66 (log10 mol/L)
* Clc1nc(Cl)c(Cl)c(Cl)c1Cl [Pentachloropyridine]: log solubility -4.471 (log10 mol/L); Clint 362 µL/min/10^6 cells
* Oc1ccc(Cl)cc1Cc1cc(Cl)ccc1O [Dichlorophen]: fraction unbound 0.0045; Clint 13.2 µL/min/10^6 cells
* CSc1ccc(C(=O)C(C)(C)N2CCOCC2)cc1 [2-Methyl-4'-(methylthio)-2-morpholinopropiophenone]: BP 348.9 °C; logP (octanol/water) 3.09; log solubility -4.193 (log10 mol/L); vapor pressure -5.824 (log10 mmHg)
* Cc1cccc(C)c1N(Cn1cccn1)C(=O)CCl [Metazachlor]: log solubility -2.79 (log10 mol/L); vapor pressure -6.156 (log10 mmHg)

Excerpt, the final 3 entries:

- Oc1ccc(Cl)cc1Cc1cc(Cl)ccc1O [Dichlorophen]: fraction unbound 0.0045; Clint 13.2 µL/min/10^6 cells
- CSc1ccc(C(=O)C(C)(C)N2CCOCC2)cc1 [2-Methyl-4'-(methylthio)-2-morpholinopropiophenone]: BP 348.9 °C; logP (octanol/water) 3.09; log solubility -4.193 (log10 mol/L); vapor pressure -5.824 (log10 mmHg)
- Cc1cccc(C)c1N(Cn1cccn1)C(=O)CCl [Metazachlor]: log solubility -2.79 (log10 mol/L); vapor pressure -6.156 (log10 mmHg)